Values quoted from earlier work, collected in publication PMC5594411 (Biomacromolecules, 2016).

T-DM1
DM1 molecules per antibody: 3.5 DM1 molecules/antibody
